The text below walks through data of patent US20090143283A1, “Pituitary Adenylate Cyclase Activating Peptide (PACAP) Receptor (VPAC2) Agonists and Their Pharmacological Methods of Use” (Bayer Pharmaceuticals Corporation, priority 2004, published 2009).

Amino acid sequences for entries named in this document (tags omitted).
UniProt P27487, whole entry, species assumed: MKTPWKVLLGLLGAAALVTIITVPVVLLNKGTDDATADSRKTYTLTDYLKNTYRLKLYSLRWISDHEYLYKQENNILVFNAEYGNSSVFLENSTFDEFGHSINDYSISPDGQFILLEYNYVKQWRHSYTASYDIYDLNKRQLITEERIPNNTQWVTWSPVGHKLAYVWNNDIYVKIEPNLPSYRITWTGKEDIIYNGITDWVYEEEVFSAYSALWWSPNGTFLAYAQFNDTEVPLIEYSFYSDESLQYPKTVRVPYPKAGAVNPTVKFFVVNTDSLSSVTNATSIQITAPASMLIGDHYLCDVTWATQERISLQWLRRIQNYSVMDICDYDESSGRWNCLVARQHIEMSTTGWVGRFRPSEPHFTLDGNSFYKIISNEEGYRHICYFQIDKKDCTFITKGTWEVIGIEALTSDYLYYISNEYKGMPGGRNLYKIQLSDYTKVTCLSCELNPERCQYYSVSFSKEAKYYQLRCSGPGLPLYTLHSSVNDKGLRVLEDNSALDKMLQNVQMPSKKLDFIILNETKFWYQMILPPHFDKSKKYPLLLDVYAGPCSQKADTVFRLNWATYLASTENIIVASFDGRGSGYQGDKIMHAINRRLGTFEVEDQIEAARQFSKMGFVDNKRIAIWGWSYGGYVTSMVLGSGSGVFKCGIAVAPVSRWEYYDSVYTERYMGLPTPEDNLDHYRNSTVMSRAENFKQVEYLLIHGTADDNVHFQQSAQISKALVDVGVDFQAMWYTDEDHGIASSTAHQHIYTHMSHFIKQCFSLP

For series [1] the following is noted: cited from earlier work.
The target of another series is DPP4 (Homo sapiens, UniProt P27487). Briefly: Stability of peptides to proteolytic cleavage by DPP4. In kind it is in vitro ADME. The note with it: 37° C., DPP-IV in 100 mM HEPES pH 7.4; 0, 1, 5, 24 hr; FIG. 2a. The procedure: The formulations described in Example 4 were placed in constant stability chamber. Peptides were also analyzed for stability to degradation in solutions of DPP4 and in plasma. Samples were removed periodically for analysis by capillary electrophoresis, mass spectrometry, Edman degradation, ELISA, and assays of peptide activity, which are sensitive methods to detect degradation of polypeptide. The area of various peaks was summed and the area for peak of the parent polypeptide is divided by the total peak area. The quotient is the % purity. Since there are impurities present in the fresh polypeptide, the purity change is normalized by dividing the purity at different time point by the initial purity. For stability to DPP4 and plasma, peptides at 20 pmol/μl were incubated at 37° C. in the presence of 300 μM DPP-IV in 100 mM HEPES, pH 7.4 (FIG. 2a). At various timepoints, the reaction (2 μl aliquot) was terminated by addition of 1 μM DPP-IV inhibitor and freezing. For MALDI mass spectrometric analysis, T=0 hr, 1 hr, 5 hr, and 24 hr timepoints were evaluated. The results are plotted as percent intact peptide or peptide derivative as compared to degradation products.

Regarding PACAP-27, the half-life in vivo in series [1] was under 10 min. The “stability to proteolytic cleavage by DPP4” value at DPP4 is given as “cleaved at longer time points”.
